Target: T1, 5α-reductase (Homo sapiens, UniProt P18405)
T1 construct: host or cells: Hs68 human genital skin fibroblasts
T1 sequence (P18405 1-259): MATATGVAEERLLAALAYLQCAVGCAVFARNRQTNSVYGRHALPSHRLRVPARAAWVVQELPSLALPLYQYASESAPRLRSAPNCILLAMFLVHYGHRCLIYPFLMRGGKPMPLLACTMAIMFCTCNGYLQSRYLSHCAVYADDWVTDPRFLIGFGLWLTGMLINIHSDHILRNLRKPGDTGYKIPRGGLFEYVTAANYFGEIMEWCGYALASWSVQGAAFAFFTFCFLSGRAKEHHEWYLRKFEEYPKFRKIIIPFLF
Assay: Inhibition of 5α-reductase activity (testosterone to 5α-dihydrotestosterone conversion) in Hs68 human genital skin fibroblasts
Type: cell-based
Settings: 0.316 μM test compound, 12 μM testosterone substrate, four hours
Protocol: Cell Culture:5α-Reductase activity was measured using Hs68 human genital skin fibroblasts which were originally purchased from the American Type Culture Collection (Rockville, Md.). The cells were grown in Dulbecco's Modified Eagle's Medium (DMEM) plus 10% stripped fetal bovine serum which was supplemented with amphotericin B (0.25 mg/ml) and gentamicin (25.0 mg/ml) (GIBCO, Grand Island, N.Y.). The serum was stripped of endogenous steroids by incubation with dextran-coated charcoal prior to its addition to the media. The cells were maintained at 37° C. in an atmosphere of 95% air, 5% CO2 and were passaged every 7-10 days by exposure to a trypsin-EDTA solution (0.025% trypsin, 0.265 mM EDTA). […]
At the end of the incubation the media was collected and transferred to an extraction tube containing 5 ml of toluene-ethanol (9:1), to which has been added 20-250 μg each. of unlabeled carrier steroids (estriol, estradiol, estrone, 5α-androstan-3α,17β-diol, 5α-androstan-3β,17β-diol, -androstene-3,17-dione, 5α-androstan-3,17-dione, testosterone, and 5α-dihydrotestosterone) (Steraloids, Inc., Wilton, N.H.). […] The [^14 C]-steroids were included as recovery standards to quantify procedural losses. […] The organic phase was collected and the samples taken to dryness, redissolved in dichloromethane-methanol (9:1) and were analyzed by thin layer chromatography using one of the methods described below. […]

## CN1C(=O)C=C[C@]2(C)c3ccc(Cl)cc3CC[C@@H]12 [Example 60, (R) (+)-trans-4-methyl-8-chloro-10b-methyl-3,4,4a,5,6,10b-hexahydrobenzo[f]quinolin-3-one]
  inhibition at 0.316 µM: 86.7%
